# Yeast mating assay B: variants of the scFv Ab-14

All variants were tested on one target, the spike HR2 peptide PDVDLGDISGINAS (SARS-CoV-2).

Each scFv is VH, a (GGGGS)3 linker, VL, as in the parent Ab-14, and differs from it in the CDRs of the light chain only.
VH: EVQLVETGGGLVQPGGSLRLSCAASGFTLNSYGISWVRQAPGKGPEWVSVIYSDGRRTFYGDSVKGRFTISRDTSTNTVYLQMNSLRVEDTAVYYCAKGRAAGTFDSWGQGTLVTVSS
VL: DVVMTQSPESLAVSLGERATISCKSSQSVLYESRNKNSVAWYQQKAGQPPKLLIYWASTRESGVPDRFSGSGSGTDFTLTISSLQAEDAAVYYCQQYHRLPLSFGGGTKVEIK

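The parent was found by panning a naive human phage display library on the peptide. This is the validation round: designs drawn from the data on random variants, tested in the same kind of assay. Their group label is 14L_En_Gen (En: ensemble of fine-tuned language models; Gen: genetic algorithm). In AlphaSeq, yeast of one mating type display the scFv and yeast of the other type display the target. Pairs that bind mate more often; barcode pairs of the diploids are counted by sequencing. The ratio of observed to expected reads was calibrated, replicate by replicate, on BCL2-family standards whose Kd was known from biolayer interferometry. There are six technical replicates.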

Each variant is given by its three light chain CDRs, as the data file delimits them; those of the parent are KSSQSVLYESRNKNSVA, WASTRES, QQYHRLPLS.
Scale: log10 of Kd in nM, estimated from mating counts; low values are strong binders.
Averages over replicates are reported, and they cover detected replicates only.
A pair that was not seen in that replicate is written "n.d."; this usually means weak binding, but a binder can also be missed.
The authors averaged sequences with at least three values out of six and counted those with two or fewer as poor binders.
The range of this assay differs from that of the first round, and the authors advise against merging the two.
The parent sequence was in this pool as ten entries: three were never detected, three once, and four in most replicates, with averages from 0.34 to 2.37.
As a blank, each scFv also met three strains without target: over all light chain designs, 4% of these pairings were detected, typically at 2.64 and seldom below 1.59. For each scFv, signals with the empty controls are counted beside the result, with their mean in brackets.

CDR-L1	CDR-L2	CDR-L3	replicates, log10 nM	mean log10 Kd (nM)	signal with controls
QLYEMNYELSGKTHSVA	DNSTRGE	QQYFRLPLD	1.62 / 1.55 / 2.66 / 1.64 / 1.09 / 2.11	1.78	2/18 (2.39)
KLTMITGLEKVHGNNVA	EMETRTK	QQYNRLPLS	0.33 / 0.26 / -0.03 / 0.23 / 0.18 / 0.47	0.24	0/18
MVTQMAMTGMMSKRSVA	NATTREP	QQYHRLPLI	1.24 / 1.19 / 0.87 / 0.92 / 1.09 / 1.11	1.07	0/18
MISQVMNMLTREGNNVA	DLTEREK	QQYFRLPLS	2.41 / n.d. / 3.19 / 2.43 / n.d. / 4.09	3.03	1/18 (1.83)
KLSMTHQMESVNRNSVA	ELVTRMR	QQYNRLPLS	1.17 / 0.74 / 0.96 / 0.82 / 0.65 / 0.86	0.87	1/18 (2.86)
HMSALTLQGMYHRNSVA	QMTTREN	QQYDHLPLS	1.71 / 1.73 / 1.67 / 1.15 / 1.48 / 1.86	1.60	1/18 (1.80)
MISQLYNMGSFAINSVA	QASLRND	QQYDRLPLM	0.79 / 0.36 / 0.35 / 0.35 / 0.15 / 0.28	0.38	1/18 (1.91)
TISGVMQQMSHNKSNVA	EVSMRLD	QQYFRLPLE	n.d. / 1.89 / 3.25 / 1.03 / 1.69 / n.d.	1.96	0/18
MLSQMWAIGTKVKNSVA	QASMRFN	QQYDRLPLI	3.11 / n.d. / 3.06 / 2.34 / 2.93 / 1.84	2.66	0/18
TISQITSLFSQTINNVA	EVSTREA	QQYDRLPLA	0.91 / 0.70 / 0.32 / 0.38 / 0.20 / 0.79	0.55	0/18
IVSQLMLWGMHLKNSIA	EAVTRLN	QQYERLPLF	n.d. / n.d. / n.d. / n.d. / n.d. / n.d.	n.d.	0/18
MMSQVTGLGQRHRNNVA	QTSTRED	QQYDHLPLA	0.24 / 0.23 / 0.16 / 0.01 / 0.18 / 0.27	0.18	1/18 (3.18)
NIYQAMHTLSQMKDNVA	DVNERGN	QQYFRLPLS	n.d. / n.d. / n.d. / n.d. / n.d. / n.d.	n.d.	0/18
MLSQMTGLGMKVSNSVA	QASMRFN	QQYERLPLI	n.d. / 2.16 / 2.68 / 1.50 / 2.66 / n.d.	2.25	0/18
TIGQTLMAGIRNRSNVA	EVSQRLN	QQYDRLPLL	1.06 / 0.82 / 0.65 / 0.82 / 0.76 / 0.56	0.78	6/18 (3.06)
KISMITGHMSVSKNRVA	EMETREN	QQYDRLPLS	1.85 / 1.48 / 1.66 / 0.99 / 2.08 / 1.68	1.63	1/18 (2.85)
MISQLMNMGQFAINSVA	QAAIRNQ	QQYDRLPLA	n.d. / n.d. / n.d. / 2.56 / n.d. / n.d.	2.56	0/18
HMSALTLMGTRNRNSVA	QMTTREN	QQYDRLPLA	1.26 / 1.14 / 0.47 / 0.83 / 1.14 / 1.89	1.12	0/18
KIGMTLNQMMHKKNAVA	DLVTREN	QQYHRLPLS	0.85 / 0.37 / 0.35 / 0.48 / 0.67 / 0.69	0.57	1/18 (2.38)
MMSQVTGSGTRHRNNVA	QTSMREI	QQYDRLPLV	0.28 / 1.17 / 0.57 / 1.04 / 0.02 / 1.51	0.76	0/18
HLGLAQMLEEYVRNSVA	NNSTREK	QQYDRLPLS	n.d. / n.d. / 3.08 / n.d. / n.d. / 3.01	3.04	2/18 (2.97)
MVTQMAMTGMMSKRSVA	NAETREH	QQYHRLPLI	1.55 / 1.71 / 1.72 / 2.61 / 2.67 / 1.72	2.00	1/18 (2.56)
IVSQLMLWGMHAKNSIA	EAQTRIN	QQYDRLPLF	2.15 / 1.84 / n.d. / 2.27 / 1.87 / n.d.	2.03	0/18
KVSEFMRGLMGRKDSIA	DNTTRGS	QQYDRLPLS	n.d. / n.d. / 2.11 / 2.56 / 2.85 / n.d.	2.51	0/18
QITMLLNFESYKINNVA	QMETRVN	QQYDRLPLS	0.32 / 1.19 / 0.43 / 0.83 / n.d. / 0.86	0.73	0/18
MVSQLMLWGHLAKNSIA	EAQTRLN	QQYDRLPLF	n.d. / n.d. / n.d. / n.d. / n.d. / 1.24	1.24	0/18
KLSMITGHMRMAKDNVA	EMVTREK	QQYNRLPLS	0.43 / 0.13 / 0.02 / 0.28 / -0.03 / 0.46	0.21	0/18
KISFLTNQTFEQSNNVA	EMVTRER	QQYNRLPLS	0.72 / 1.17 / 1.06 / 0.73 / 0.58 / 0.72	0.83	0/18
KITATMRFEQKESNNIA	EVTQRSK	QQYYRLPLS	1.31 / 0.35 / 0.75 / 0.72 / 0.83 / 0.55	0.75	0/18
KISMVVENELKNRNSVA	ELVTRMA	QQYNRLPLS	0.59 / 0.89 / 1.11 / 0.99 / 1.00 / 1.07	0.94	0/18
KLTMITGLEKVHGNNVA	EMETRER	QQYNRLPLA	n.d. / 0.68 / 0.59 / 0.73 / 0.55 / 0.15	0.54	0/18
KITSTMRFEQKNKNNIA	EVSTRSK	QQYVRLPLA	-0.18 / -0.39 / -0.19 / -0.51 / -0.60 / -0.25	-0.35	1/18 (3.49)
IVSQLMLWGMHAKNSIA	EAEMRLN	QQYERLPLF	n.d. / n.d. / n.d. / n.d. / n.d. / n.d.	n.d.	0/18
HMSALTLMGSRQRNSVA	QMTTREN	QQYDRLPLS	0.22 / 0.28 / -0.07 / -0.09 / 0.09 / 0.35	0.13	0/18
VLSGMTNQAMSKHNSVA	NVTMRPD	QQYHRLPLS	1.15 / 0.58 / 0.65 / 0.81 / 0.53 / 0.78	0.75	1/18 (2.61)
QISMLLNFESKVGNNVA	QMETRVN	QQYDRLPLS	0.95 / 0.76 / 2.30 / 1.64 / 1.33 / 2.29	1.55	0/18
HISMITLQGMRQKNSVA	QMTTREN	QQYDRLPLA	1.18 / 1.08 / 0.84 / 0.82 / 1.36 / 1.46	1.12	1/18 (2.21)
IVSQLMLWGYHAKNSIA	EAETRGN	QQYDRLPLF	n.d. / n.d. / n.d. / n.d. / n.d. / n.d.	n.d.	0/18
KVSEFMRGLMKKKDSIA	DNDTRNS	QQYDRLPLS	1.56 / 2.71 / 3.16 / 1.87 / 2.39 / 2.79	2.41	0/18
MVTQMAMTGMMSKRSVA	NATTREE	QQYHRLPLI	n.d. / n.d. / n.d. / n.d. / n.d. / n.d.	n.d.	0/18
KFSQMANQFSVSMNAVA	EMSTREE	QQYNRLPLA	0.24 / 0.12 / 0.03 / -0.13 / -0.27 / 0.09	0.01	0/18
TLYGLSNSMSINKDSVA	EMTTREE	QQYDRLPLI	1.08 / 1.35 / 1.30 / 0.58 / 0.61 / 0.77	0.95	0/18
MISQLYNMGQFAINSVA	QASLRNE	QQYDRLPLA	1.52 / 1.87 / 1.45 / 1.58 / 1.54 / 1.24	1.53	1/18 (1.60)
MISQVMNTLTHEGNNVA	DLQNREK	QQYFRLPLS	1.29 / 0.29 / 0.56 / 0.64 / 1.18 / 1.23	0.87	0/18

Extract of 4 entries:

| CDR-L1 | CDR-L2 | CDR-L3 | replicates, log10 nM | mean log10 Kd (nM) | signal with controls |
|---|---|---|---|---|---|
| MMSQVTGSGTRHRNNVA | QTSMREI | QQYDRLPLV | 0.28 / 1.17 / 0.57 / 1.04 / 0.02 / 1.51 | 0.76 | 0/18 |
| KISMITGHMSVSKNRVA | EMETREN | QQYDRLPLS | 1.85 / 1.48 / 1.66 / 0.99 / 2.08 / 1.68 | 1.63 | 1/18 (2.85) |
| MLSQMWAIGTKVKNSVA | QASMRFN | QQYDRLPLI | 3.11 / n.d. / 3.06 / 2.34 / 2.93 / 1.84 | 2.66 | 0/18 |
| KLTMITGLEKVHGNNVA | EMETRTK | QQYNRLPLS | 0.33 / 0.26 / -0.03 / 0.23 / 0.18 / 0.47 | 0.24 | 0/18 |

The measurements come from Li et al. 2023 (doi:10.1038/s41467-023-39022-2) through the FLAb antibody collection.